The results in this text go back to patent US10654836B2, “Pyrimidine derivative, method for preparing same and use thereof in medicine” (Zhejiang Hisun Pharmaceutical Co., Ltd., priority 2016, dated 2020).

In general, IC50 refers to the point on the concentration scale where inhibition reaches its midpoint.

The test system of experiment [1] is hepatocellular carcinoma tumor cell Huh7 xenografts. Put plainly: Growth inhibition of Huh7 xenografts in tumor-bearing BALB/c nude mice. Type of experiment: in vivo. Conditions: for Relative tumor growth rate T/C (%): bid. How it is done: On day 0, Huh7 cells were cultured in DMEM medium containing 10% of fetal bovine serum, 100 U of penicillin, and 100 μg/mL of streptomycin. And cultured in an incubator of 37° C., 5% CO2.
Each mouse was inoculated subcutaneously in the right axilla with 150 μL of cell suspension (5.0×10^6 cells/mouse) under sterile conditions. On day 12 after inoculation, when the tumor grew to a volume of 200-300 mm^3, mice with similar tumor volume and good shape were selected (the shape was as single spherical as possible, no irregular shape or multiple tumors gathered together) and divided into 5 groups, each group had 9 mice.
Each group of animals was administrated (intraperitoneal injection (ip) or oral administration (po)) a test substance twice a day (bid) at a fix time per day according to the body weight of the animals. The first dose was administered on the day of grouping ([…]), and continued for 22 days, the body weight of the animals was recorded daily.
The formation of tumor in the inoculated part of each group of animals was observed. The long diameter (Y) and short diameter (X) of the tumor nodules were measured twice a week using vernier calipers and calculated according to the following formula: Volume of tumor nodules(V): V=(X^2Y)/2.
Evaluation index of antitumor activity: tumor growth inhibition rate TGI (%), relative tumor proliferation rate T/C (%).
The relative tumor volume (RTV) is calculated as: RTV=100×TVt/TVinitial
wherein, TVinitial is the tumor volume measured at the time of grouping administration; TVt is the tumor volume at each measurement during administration.
The calculation formula for the relative tumor proliferation rate (% T/C) is: % T/C=100%×(RTVT/RTVC)
wherein, RTVT represents RTV of the treatment group; RTVC represents RTV of the solvent control group.
wherein, TVt(T) represents the tumor volume at each measurement in the treatment group; TVinitial(T) represents the tumor volume of the treatment group at the time of grouping administration; TVt(C) represents the tumor volume at each measurement in the solvent control group; TVinitial(C) represents the tumor volume of the solvent control group at the time of grouping administration.
wherein, WC represents the tumor weight of the control group; WT represents the tumor weight of the treatment group.

For experiment [2], the system named is hepatocellular carcinoma tumor cells Huh7. Put plainly: Huh7 tumor cell proliferation inhibition (CCK-8). Format: cell-based. The following applies: Homo sapiens, Huh-7; 72 hours culture. How it is done: The following method was used to determine the effect of the compounds of the present invention against tumor cell proliferation. For the FGFR4 subtype, hepatocellular carcinoma tumor cells Huh7 (purchased from the Cell Resource Center of Shanghai Institutes for Biological Sciences, Chinese Academy of Sciences) were used to determine the inhibition against the activity of hepatocellular carcinoma tumor cells. Huh7 cells were cultured in a DMEM medium containing 10% of fetal bovine serum, 100 U of penicillin and 100 μg/mL of streptomycin. Cultured in an incubator of 37° C., 5% CO2. Hepatocellular carcinoma tumor cell activity was measured by using a kit of Cell Counting Kit-8 (Dojindo, Dojindo Molecular Technologies, Inc).
The experimental method was carried out according to the steps of the kit instructions, and is briefly described as follows: the test compound was first dissolved in DMSO to prepare a stock solution, and then gradiently diluted with the corresponding medium of the cells to prepare a test sample, and the final concentration of the compound was in the range of 30 μM to 0.01 nM. Tumor cells in the logarithmic phase were seeded into 96-well cell culture plates at a suitable density, cultured in an incubator of 37° C., 5% CO2 overnight, then test compound samples were added and continued to culture the cells for 72 hours. After completion of the culture, a suitable volume of CCK-8 test solution was added to each well, and incubated at 37° C. for 1 to 4 hours, and then the absorbance values of the respective wells at 450 nM were read on a microplate reader.

In the case of `C=CC(=O)Nc1cc(N2CCN(CC)C3(CC3)C2)ccc1Nc1cc(N(C)C(=O)Nc2c(Cl)c(OC)cc(OC)c2Cl)ncn1` [Example 5, N-(2-((6-(3-(2,6-Dichloro-3,5-dimethoxyphenyl)-1-methylureido)pyrimidin-4-yl)amino)-5-(4-ethyl-4,7-diazaspiro[2.5]octan-7-yl)phenyl)acrylamide], the “Relative tumor growth rate T/C (%)” value is 100% in experiment [1] (25 mg/kg IP, Day 13 after inoculation); 91% in experiment [1] (25 mg/kg IP, Day 16 after inoculation); 86% in experiment [1] (25 mg/kg IP, Day 20 after inoculation); 78% in experiment [1] (25 mg/kg IP, Day 23 after inoculation); 76% in experiment [1] (25 mg/kg IP, Day 27 after inoculation); 79% in experiment [1] (25 mg/kg IP, Day 30 after inoculation). For the same compound, the “Relative tumor growth rate T/C (%)” value worked out at 85% in experiment [1] (25 mg/kg IP, Day 34 after inoculation); 100% in experiment [1] (50 mg/kg IP, Day 13 after inoculation); 80% in experiment [1] (50 mg/kg IP, Day 16 after inoculation); 65% in experiment [1] (50 mg/kg IP, Day 20 after inoculation); 48% in experiment [1] (50 mg/kg IP, Day 23 after inoculation); 44% in experiment [1] (50 mg/kg IP, Day 27 after inoculation). Further, the “Relative tumor growth rate T/C (%)” value in experiment [1] (50 mg/kg IP, Day 30 after inoculation) was 49%; in experiment [1] (50 mg/kg IP, Day 34 after inoculation), 60%; in experiment [1] (300 mg/kg PO, Day 13 after inoculation), 100%; in experiment [1] (300 mg/kg PO, Day 16 after inoculation), 61%; in experiment [1] (300 mg/kg PO, Day 20 after inoculation), 25%; in experiment [1] (300 mg/kg PO, Day 23 after inoculation) it was 16%. In addition, the “Relative tumor growth rate T/C (%)” value in experiment [1] (300 mg/kg PO, Day 27 after inoculation) is 13%; in experiment [1] (300 mg/kg PO, Day 30 after inoculation), 9.4%; in experiment [1] (300 mg/kg PO, Day 34 after inoculation), 9.0%. For the same compound, the “growth inhibitory effect against the in vivo tumor model (in words)” value in experiment [1] (mouse, in vivo) was “significant growth inhibitory effect”. In experiment [1] (mouse, in vivo), the “in vivo activity compared with Example 108 of WO2015057938 (in words)” value is reported as “superior to that of the compound of Example 108 of WO2015057938”. This compound displayed an IC50 in experiment [2] of 12 nM.
`C=CC(=O)Nc1cc(N2CCC3(CCN(CC)C3)C2)ccc1Nc1cc(N(C)C(=O)Nc2c(Cl)c(OC)cc(OC)c2Cl)ncn1` (centres unmarked) [Example 6, N-(2-((6-(3-(2,6-Dichloro-3,5-dimethoxyphenyl)-1-methylureido)pyrimidin-4-yl)amino)-5-(7-ethyl-2,7-diazaspiro[4.4]nonan-2-yl)phenyl)acrylamide] displayed an IC50 in experiment [2] of 10 nM.
The same measure, in the same setting: next, `C=CC(=O)Nc1cc(N2CCC(N(C)C)CC2)ccc1Nc1cc(N(C)C(=O)Nc2c(Cl)c(OC)cc(OC)c2Cl)ncn1` [Example 7, N-(2-((6-(3-(2,6-Dichloro-3,5-dimethoxyphenyl)-1-methylureido)pyrimidin-4-yl)amino)-5-(4-(dimethylamino)piperidin-1-yl)phenyl)acrylamide]: 4.8 nM.
